pEC50: −log10 of the molar value. Where two headings read alike, the source gives them in different places.
How the values were obtained:
MCF7 cells = assay: Dose-response viability assay (PrestoBlue), MCF7; format: cell-based; conditions: Homo sapiens, MCF7, 120 h, read-out: EC50 (MCF7), 5 d, PrestoBlue cell viability
[1] = system: phospho-FAK^Y861 in SYF cells
[2] = human plasma, 1 μM, 2 h, 37 °C
[3] = system: phospho-SRC^Y416 and phospho-FAK in MDA-MB-231 cells; conditions: Western blot
MDA-MB-231 cells = conditions: 10 nM, from 6 h
in vitro [4] = conditions: rat, plasma
[5] = rat plasma, 1 μM, 2 h, 37 °C
[6] = Stability in primary hepatocytes, mouse
[7] = system: Tg(brn3c:mGFP) zebrafish embryos; format: in vivo; conditions: treatment for 2 d in the neuromast assay
in vitro [8] = conditions: human, plasma
[9] = system: SYF murine embryonic fibroblasts (SRC-/-, YES-/-, FYN-/-); assay: Dose-response proliferation study in SYF cells; conditions: compared with dasatinib
[10] = system: phospho-SRC^Y416 and phospho-FAK in MCF7 cells; conditions: Western blot
[11] = mouse plasma, 1 μM, 2 h, 37 °C
[12] = target: SRC; recombinant human full length (Homo sapiens, UniProt P12931); conditions: Michaelis-Menten and Lineweaver-Burk plots

COc1cc(-c2nn(CCN3CCC(N4CCCCC4)CC3)c3ncnc(N)c23)ccc1NC(=O)OC(C)(C)C [12e]
pEC50 (MCF7 cells): 6.68

COc1cc(-c2nn(CCN3CCC(N(C)C)CC3)c3ncnc(N)c23)ccc1CC(=O)OC(C)(C)C [12x]
pEC50 (MCF7 cells): 6.38

Cc1nc(Nc2ncc(C(=O)Nc3c(C)cccc3Cl)s2)cc(N2CCN(CCO)CC2)n1.O [dasatinib]
FAK activity (phospho-FAK) in cells lacking SRC [1]: unaffected
cardiotoxic phenotype in zebrafish embryos (zebrafish embryos; 1–10 μM): patent cardiotoxic phenotype
toxicity in zebrafish embryos (zebrafish embryos; zebrafish, in vivo): severe cardiotoxicity and death of most embryos

COc1cc(-c2nn(CCN3CCC(N4CCCC4)CC3)c3ncnc(N)c23)ccc1NC(=O)OC(C)(C)C [12d]
pEC50 (MCF7 cells): 7.11

COc1cc(-c2nn(CCN3CCC(N(C)C)CC3)c3ncnc(N)c23)ccc1NC(=O)OC(C)(C)C [11a, tert-Butyl N-[4-[4-amino-1-[2-[4-(dimethylamino)-1-piperidyl]ethyl]pyrazolo[3,4-d]pyrimidin-3-yl]-2-methoxy-phenyl]carbamate]
plasma stability (recovery) [2]: full plasma stability
total SRC level [3]: did not increase the total levels of SRC
cell motility (scratch-wound) (MDA-MB-231 cells): significantly reduced cell motility
fraction unbound at 24 h, 10 µM (in vitro [4]): 0.094
plasma stability (recovery) [5]: full plasma stability
decrease in half-life in mice hepatocytes versus human hepatocytes [6]: 7 fold
effect on development of the embryos [7]: minimal effect on the development of the embryos
FAK activity (phospho-FAK) in cells lacking SRC ([1]; SYF cells, 3-100 nM): unaffected
fraction unbound at 24 h, 10 µM (in vitro [8]): 0.191
pEC50 (MCF7 cells): 7.51
antiproliferative activity in SYF cells [9]: significantly less antiproliferative activity in SYF cells than dasatinib
inhibition of SRC autophosphorylation observed down to [10]: 10 nM
plasma stability (recovery) [11]: full plasma stability
zebrafish heart development under short treatment (zebrafish embryos; 500 µM added 2 dpf, 4 h, then 48 h in fresh media): normal heart development and no toxicity
mode of SRC inhibition [12]: competitive with respect to ATP

COc1cc(-c2nn(CCN3CCC(N(C)C)CC3)c3ncnc(N)c23)ccc1NC(=O)NC(C)(C)C [12i]
pEC50 (MCF7 cells): 4.45

COc1cc(-c2nn(CCN3CCC(N(C)C)CC3)c3ncnc(N)c23)ccc1NCc1ccccc1 [12m, 3-[4-(benzylamino)-3-methoxy-phenyl]-1-[2-[4-(dimethylamino)-1-piperidyl]ethyl]pyrazolo[3,4-d]pyrimidin-4-amine]
pEC50 (MCF7 cells): 6.24

COc1cc(-c2nn(C(C)C)c3ncnc(N)c23)ccc1NC(=O)OC(C)(C)C [PP20]
zebrafish heart development under short treatment (zebrafish embryos; zebrafish, in vivo): severe cardiotoxicity

CN(C)C1CCN(CCn2nc(-c3ccc(CC(=O)OC(C)(C)C)cc3)c3c(N)ncnc32)CC1 [12w]
pEC50 (MCF7 cells): 5.59
